Test results published in publication PMC8245513.

Molecular target: unlabeled NTF2 (rat) (UniProt P61972)
Assay: partitioning into FG phase particles (confocal laser-scanning microscopy); prf.GLFG_(52x12) phase; Alexa488-labeled Ran converted to the RanGDP form by pre-incubation with RanGAP; without or with unlabeled NTF2 (2 µM dimer concentration)

With “Alexa488-labeled Ran (from UniProt P62826 1-216) (natural protein; other documents disagree on this pair)” the fold increase of Ran's partition coefficient into the prf.GLFG (52x12) phase on addition of NTF2 was 170 fold.
